Values of other authors in US5739158A, “Nitrogen-containing cyclohetero cycloalkylaminoaryl derivatives for CNS disorders” (The United States of America as represented by the …, priority 1992, dated 1998).

System: kappa opioid receptors
Conditions: B. R. de Costa et al, 1989; cited from earlier work

**Q.** With `CN(C(=O)Cc1ccc(Cl)c(Cl)c1)[C@@H]1CCCC[C@H]1N1CCCC1` (relative stereo) as the molecule, how does the “Selectivity for kappa opioid receptors (in words)” value read?
**A.** The value was “highly selective ligand for kappa opioid receptors”.
